From publication PMC7056826, “Crystal Structure of the Chloroplastic Glutamine Phosphoribosylpyrophosphate Amidotransferase GPRAT2 From Arabidopsis thaliana” (Frontiers in Plant Science, 2020)

Target: T1, AtGPRAT2 (Arabidopsis thaliana, UniProt Q9STG9)
T1 sequence (Q9STG9 87-561): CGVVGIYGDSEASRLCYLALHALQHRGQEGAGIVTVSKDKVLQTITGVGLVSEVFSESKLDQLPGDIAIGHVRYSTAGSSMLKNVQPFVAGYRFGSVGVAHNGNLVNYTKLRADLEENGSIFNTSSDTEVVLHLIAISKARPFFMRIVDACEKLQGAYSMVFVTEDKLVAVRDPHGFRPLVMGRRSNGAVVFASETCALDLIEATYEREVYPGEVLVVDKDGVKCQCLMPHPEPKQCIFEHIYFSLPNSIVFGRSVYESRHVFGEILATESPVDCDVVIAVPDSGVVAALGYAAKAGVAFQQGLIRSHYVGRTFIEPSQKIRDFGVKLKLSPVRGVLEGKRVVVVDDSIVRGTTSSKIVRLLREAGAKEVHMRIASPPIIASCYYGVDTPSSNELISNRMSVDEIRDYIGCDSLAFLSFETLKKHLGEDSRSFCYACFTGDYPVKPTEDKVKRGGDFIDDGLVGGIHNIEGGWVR
Design: gene ASE2
Conditions: recombinant AtGPRAT2 75-561; crystallised without DAS734 or PRPP

Q: With [S]12[Fe]3[S]4[Fe]1[S]1[Fe]2[S]3[Fe]41 [4Fe-4S cofactor] as the compound, how does the “crystal structure, 3.07 Å” value read?
A: The value was “two AtGPRAT2 molecules were found in the asymmetric unit, each with a 4Fe-4S cofactor”.
